The values below are quoted from earlier work in article PMC12332667, “Role of Structural Modifications in Peptidomimetic Compounds as Potential Antimicrobial Agents against Staphylococcus aureus and Streptococcus pyogenes: Balancing Bioavailability, Safety, and Antimicrobial Activity” (ACS Omega, 2025).

On the set-up of this data set: method as in PMID 10517933. Conditions: uninflamed organism; reference number not given, probably ref 82; cited from earlier work.

For the substance penicillin, the “penetration (BBB)” value is listed as 1%.
